## Ab-14 light chain CDR variants: yeast mating affinities

Binding partner: SARS-CoV-2 spike HR2 peptide, sequence PDVDLGDISGINAS.

Ab-14 is the parent antibody, in scFv form: VH, then the linker GGGGSGGGGSGGGGS, then VL. The heavy chain is unchanged in all variants.
VH: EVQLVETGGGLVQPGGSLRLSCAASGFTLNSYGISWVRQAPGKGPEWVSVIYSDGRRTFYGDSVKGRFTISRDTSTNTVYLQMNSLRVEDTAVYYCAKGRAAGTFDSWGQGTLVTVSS
VL: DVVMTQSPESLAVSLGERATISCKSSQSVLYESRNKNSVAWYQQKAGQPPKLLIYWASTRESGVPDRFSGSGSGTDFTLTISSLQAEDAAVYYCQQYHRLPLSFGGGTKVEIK

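Phage display of a naive human antibody library on the peptide gave the parent. Designed CDR sequences, proposed from the first random library and measured here. Their group label is 14L_GP_Gen (GP: Gaussian process model; Gen: genetic algorithm; a sequence that several methods proposed may carry one label only). AlphaSeq pools MATa yeast showing the antibodies with MATalpha yeast showing the peptide. Mating (16 h, 30 °C) was followed by selection of diploids and sequencing of their barcodes. Read counts were normalised to the haploid input and turned into Kd by a linear fit to BCL2-family pairs of known affinity, for each replicate. Mating was done six times.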

Substitutions are numbered in sequence along the VL above, starting at 1 (not Kabat). The read-out is the apparent dissociation constant on a log10 scale (nM): the lower, the stronger. Three control strains display no target. For all light chain designs, 4% of the pairings with them gave a signal, with a median of 2.64 and one signal in twenty below 1.59, so weak values seen in few replicates may be background. For each scFv, signals with the empty controls are counted beside the result. The authors averaged sequences with at least three values out of six and counted those with two or fewer as poor binders. Of ten entries with the parent sequence, four were seen in most replicates (averages 0.34 to 2.37), three in one and three in none, so single entries are noisy. A sequence measured in both rounds can read differently, since the two assays cover different ranges.

The variant S25L/V29M/W56N/T59L showed -0.30, -0.47, -0.32, -0.58, -0.34, -0.38 (controls 1 of 18).
The variant S25L/S33Q/S38N/W56G showed -0.31, -0.35, -0.71, -0.44, -0.49, -0.42 (controls 2 of 18).
The variant S25L/S26K/V29E/W56N/E61M showed -0.11, -0.43, -0.41, -0.34, -0.25, -0.29 (controls 2 of 18).
The variant S25L/S26M/V29N/W56N showed 0.09, -0.10, -0.13, -0.15, -0.08, -0.13 (controls 1 of 18).
The variant S25M/W56D/A57G showed -0.09, -0.09, -0.42, -0.45, -0.15, -0.08 (controls 1 of 18).
The variant S25V/V29M/W56N/Q96S showed 0.02, -0.17, -0.23, -0.29, -0.14, -0.07 (controls 0 of 18).
The variant S25F/N35Q/W56N showed 0.10, 0.04, 0.43, 0.04, -0.06, 0.13 (controls 0 of 18).
The variant K24I/S25L/W56N showed 0.45, 0.35, 0.12, 0.06, 0.33, 0.32 (controls 0 of 18).
The variant S25L/S26Q/V29M/W56D showed -0.05, -0.18, -0.26, -0.28, -0.39, -0.09 (controls 1 of 18).
The variant S25V/V29H/W56E/E61L showed 0.04, -0.01, -0.03, -0.17, -0.08, 0.07 (controls 0 of 18).
The variant S25I/V29W/W56N/E61L showed 0.38, 0.32, 0.40, 0.05, 0.35, 0.47 (controls 1 of 18).
The variant S25L/S26K/W56E showed -0.13, -0.47, -0.18, -0.33, -0.45, 0.05 (controls 0 of 18).
The variant S25I/S26Q/W56N showed -0.33, -0.06, -0.47, -0.38, -0.21, -0.23 (controls 0 of 18).
The variant S25M/V29D/W56N/A57G showed 0.16, 0.26, 0.09, 0.05, 0.34, 0.31 (controls 0 of 18).
The variant S25L/Q27G/V29E/W56H showed 0.38, 0.16, 0.16, -0.07, 0.29, 0.27 (controls 1 of 18).
The variant S25L/S26E/W56N/S62K showed -0.52, -0.48, -0.30, -0.52, -0.30, -0.04 (controls 1 of 18).
The variant S25V/V29E/S38A/W56N/T59Q showed 0.19, 0.01, -0.05, -0.17, -0.11, 0.09 (controls 1 of 18).
The variant S25L/W56E/S58N showed -0.08, -0.45, -0.49, -0.48, -0.51, -0.27 (controls 2 of 18).
The variant S25L/V29M/W56S showed -0.09, -0.22, -0.26, -0.56, -0.33, -0.10 (controls 0 of 18).
The variant S25L/L30E/W56A showed -0.24, -0.35, -0.24, -0.16, -0.26, -0.26 (controls 2 of 18).
The variant S25L/V29F/W56N/E61C showed 0.23, 0.06, -0.13, -0.31, -0.18, 0.09 (controls 1 of 18).
The variant S25L/N35L/W56D showed -0.15, -0.48, -0.40, -0.51, -0.32, -0.37 (controls 1 of 18).
The variant S25L/V29K/W56N/E61L showed -0.05, 0.00, 0.04, -0.07, -0.37, 0.29 (controls 0 of 18).
The variant S25L/Q27G/V29E/W56N/E61L showed -0.09, -0.41, -0.57, -0.44, -0.21, -0.37 (controls 0 of 18).
The variant S25L/V29F/L30P/W56N showed 0.29, -0.06, 0.10, -0.13, 0.23, 0.04 (controls 0 of 18).
The variant S25L/W56N/T59Q/E61L showed 0.46, 0.26, 0.25, 0.24, 0.44, 0.47 (controls 0 of 18).
The variant S25L/W56E/S58D showed 0.18, 0.13, -0.10, -0.03, -0.04, 0.24 (controls 0 of 18).
The variant S25L/S28Q/V29D/W56E showed -0.07, -0.11, -0.14, -0.30, -0.33, -0.11 (controls 1 of 18).
The variant S25L/V29C/W56D showed -0.32, -0.52, -0.52, -0.62, -0.47, -0.43 (controls 2 of 18).
The variant S25L/L30P/W56N/S62D showed 0.07, 0.07, -0.05, 0.14, -0.03, 0.18 (controls 1 of 18).
The variant S26E/V29W/L30P/W56N showed -0.09, -0.08, -0.07, -0.20, -0.20, 0.04 (controls 0 of 18).
The variant S25F/V29Q/L30G/W56N/T59Q showed 0.31, 0.10, 0.13, -0.04, 0.05, 0.27 (controls 2 of 18).
The variant S25L/K36V/W56D showed -0.35, -0.40, -0.37, -0.41, -0.30, -0.26 (controls 0 of 18).
The variant S25L/S26Q/V29Q/L30E/W56N showed 0.19, 0.36, -0.15, -0.08, -0.27, 0.53 (controls 0 of 18).
The variant S25L/S26M/L30W/W56E showed -0.28, -0.51, 0.42, -0.61, -0.07, -0.45 (controls 0 of 18).

The first 6 entries again:

changes	log10 Kd (nM) by replicate	empty controls
S25L/V29M/W56N/T59L	-0.30, -0.47, -0.32, -0.58, -0.34, -0.38	1 of 18
S25L/S33Q/S38N/W56G	-0.31, -0.35, -0.71, -0.44, -0.49, -0.42	2 of 18
S25L/S26K/V29E/W56N/E61M	-0.11, -0.43, -0.41, -0.34, -0.25, -0.29	2 of 18
S25L/S26M/V29N/W56N	0.09, -0.10, -0.13, -0.15, -0.08, -0.13	1 of 18
S25M/W56D/A57G	-0.09, -0.09, -0.42, -0.45, -0.15, -0.08	1 of 18
S25V/V29M/W56N/Q96S	0.02, -0.17, -0.23, -0.29, -0.14, -0.07	0 of 18

Values reported by Li et al. 2023, doi:10.1038/s41467-023-39022-2 (FLAb copy).